Here are results for 29 compounds from PubChem BioAssay AID2732 (Emory University Molecular Libraries Screening Center, 2010).

Structures are written as SMILES. This is a selection; strong and weak results do not stand in their true shares. Calls of active or inactive are those of the source.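 How the source made its calls: active means compounds that reduced the stress-induced luciferase reporter signal by more than about 70% of percent inhibition (limit read from the data); inactive means the rest.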

This assay can be described thus: blockers of ER-stress CHOP reporter expression – cell-based, unfolded protein response, luciferase reporter, primary screen (AID 2732).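 Further: 0% = tunicamycin plus vehicle and 100% = wells without tunicamycin.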 The note with it: CHO-K1 CHOP-promoter luciferase, tunicamycin-induced, 15-18 h; at 10 µM; stronger effect = higher value. On the technique in general: In a reporter assay the amount or activity of a reporter protein is the signal.
As usually defined, the inhibition is the relative decrease from the control value, in per cent. Regarding `O=C(OC1CN2CCC1CC2)c1cccc(Cl)c1` (centres undefined), the inhibition was inactive: 22.7%.
The value for `Nc1ccc([As](=O)(O)c2ccc([N+](=O)[O-])cc2)cc1` was inactive: 18.3%.
The value for `C(Cc1nn[nH]n1)Cc1nn[nH]n1` was inactive: -15.6%; that for `O=P(Nc1ccccn1)(c1ccc(Br)cc1)c1ccc(Br)cc1` was inactive: 2.55%.
Under `O=P(Nc1nc2ccccc2s1)(c1ccccc1)c1ccccc1` stands inactive: -7.56%.
As to `C[C@H]1OP(=O)(Oc2ccccc2)[C@H](O)[C@H](O)[C@H]1N=[N+]=[N-]` (some centres undefined), the inhibition is inactive: -0.04%.
Under `CC(C)C(=O)NC(Sc1ccccc1)C(Cl)(Cl)Cl` (centres undefined) stands inactive: 8.36%; under `O=P(Nc1nccs1)(c1ccccc1)c1ccccc1`, inactive: 8.18%; under `c1nnnn1CCn1cnnn1`, inactive: -19.5%.
Under `C[C@@H]1C=CCP(=O)(Oc2ccccc2)O1` (some centres undefined) stands inactive: 15.6%; under `C[C@H]1OP(=O)(Oc2ccccc2)C[C@@H]2O[C@@H]21` (some centres undefined), inactive: 2.92%.
On to `CC(=O)Nc1ccc([As](=O)(O)O)c(O)c1`, for which the inhibition was inactive: 2.14%.
Under `CC(=O)Nc1ccc(Oc2c([N+](=O)[O-])cc([N+](=O)[O-])cc2[N+](=O)[O-])cc1` stands inactive: 6.68%.
The value for `O=P1(Nc2nc3ccc(Cl)cc3s2)COc2ccccc2O1` (centres undefined) was inactive: 9.51%.
The value for `CCOc1ccc(C2=NCC(CBr)S2)cc1` (centres undefined) was inactive: 15.1%; that for `CC(C)(C)C(=O)NC(Sc1ccccc1)C(Cl)(Cl)Cl` (centres undefined) was inactive: 42.4%; that for `CN(C(=O)Cc1ccc(Cl)c(Cl)c1)[C@@H]1CCCC[C@@H]1N1CCCC1` was inactive: -0.75%.
Turning to `CCC(=O)N1C2C3N(C(=O)CC)C1C1N(C(=O)CC)C(C(N1C(=O)CC)N3C(=O)CC)N2C(=O)CC`, the inhibition is inactive: -5.06%.
In the case of `COC(=O)c1cc2c(s1)N=C(c1ccccc1)N(C)P2(=O)N1CCOCC1` (centres undefined), the inhibition was inactive: -3%.
Take `CC(=O)NC(SC(=S)N(CC(C)C)CC(C)C)C(Cl)(Cl)Cl` (centres undefined): the inhibition is inactive: 35.6%.
In the case of `Cc1ccc(OP(=O)(Nc2ccccn2)Oc2ccc(C)cc2)cc1`, the inhibition was inactive: 21.5%.
The value for `Cc1ccccc1OP(=O)(Nc1ccccn1)Oc1ccccc1C` was inactive: 9.81%; that for `CN(C)C(=O)Oc1noc2ccccc12` was inactive: -23.6%; that for `O=c1c2cc([N+](=O)[O-])ccc2[nH]c2c([N+](=O)[O-])cc([N+](=O)[O-])cc12` was active: 107%.
Under `c1ccc(-c2nn[nH]n2)c(-c2nn[nH]n2)c1` stands inactive: 7.06%; under `Cc1ccc(NP(=O)(Oc2cccc(C)c2)Oc2cccc(C)c2)nc1`, inactive: -2.12%.
Under `CCOC(=O)NC(Sc1ccccc1)C(Cl)(Cl)Cl` (centres undefined) stands inactive: 53.9%; under `CCNC(=S)/N=C(\N)N[N+](=O)[O-]`, inactive: 9.52%.
Regarding `O=C(NC1CCS(=O)(=O)C1)NP(=S)(Oc1ccccc1)Oc1ccccc1` (centres undefined), the inhibition is inactive: 29.8%.
